# scFv variants of Ab-91 (heavy chain) against a SARS-CoV-2 spike peptide

Reference: Engelhart et al. 2022, doi:10.1038/s41597-022-01779-4. File: FLAb, binding data.

Target peptide (SARS-CoV-2 spike, HR2 region): PDVDLGDISGINAS

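Phage display of a naive human antibody library on the peptide gave the parent. AAYL51 was designed without a model: most single CDR substitutions and a random sample of double and triple ones. The scFvs were displayed on barcoded MATa yeast, the peptide on MATalpha yeast. The frequency of each diploid, read from paired DNA barcodes, reflects how well the two displayed proteins bind. The ratio of observed to expected reads was calibrated, replicate by replicate, on BCL2-family standards whose Kd was known from biolayer interferometry. Each pool was mated in three replicate cultures.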

Each scFv is VL, a (GGGGS)3 linker, VH, as in the parent Ab-91, and differs from it in the CDRs of the heavy chain only.
VL: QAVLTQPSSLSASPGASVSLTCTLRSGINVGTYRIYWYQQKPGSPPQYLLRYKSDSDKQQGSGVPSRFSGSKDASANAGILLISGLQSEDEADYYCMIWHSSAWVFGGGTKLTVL
VH: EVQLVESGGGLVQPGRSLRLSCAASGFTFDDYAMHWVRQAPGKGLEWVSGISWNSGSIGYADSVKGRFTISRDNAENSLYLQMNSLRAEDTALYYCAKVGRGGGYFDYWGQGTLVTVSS

Positions count from residue 1 of the parent VH; T28M puts M in place of T. Kd is apparent (estimated from mating counts) and averaged on the log scale over replicates with a signal. Smaller is tighter. A pair that was not seen in any replicate is written "no signal"; this usually means weak binding, but a binder can also be missed.

changes	apparent Kd	detected
T28M V64A G100F	no signal	0 of 3
T28P G59E A61Q	no signal	0 of 3
F27G G56C G102M	120 µM	1 of 3
T28L I51V V99T	no signal	0 of 3
W53D G102K F106Y	no signal	0 of 3
F27N F106S	19 µM	2 of 3
S55M Y60I F106H	380 µM	2 of 3
G50P W53C S55V	no signal	0 of 3
F27T G100T	no signal	0 of 3
I51Y G104N	no signal	0 of 3
D30P H35R D107V	590 µM	3 of 3
F27V Y105A D107E	160 µM	3 of 3
T28N D30C G50S	32 µM	1 of 3
M34C N54R Y105S	no signal	0 of 3
S52Q G102H	2.1 µM	3 of 3
F29D H35K Y105K	650 µM	3 of 3
G59A G100M R101M	5.8 µM	3 of 3
A33W I58Q K65S	no signal	0 of 3
S52C Y60I F106Q	no signal	0 of 3
G26F D31H G56T	780 µM	1 of 3
W53S Y60F G100R	no signal	0 of 3
S55D S57H R101M	8.7 µM	1 of 3
Y32I V64N G104Q	8.9 µM	1 of 3
D30R D62R V64E	no signal	0 of 3
T28E N54D G100K	10 µM	2 of 3
S57P G103V F106D	9.5 µM	1 of 3
G50D A61M D62P	no signal	0 of 3
D31G G50M I58C	no signal	0 of 3
G50W I58Y G104R	230 µM	2 of 3
F27D D31C S57K	no signal	0 of 3
D31H K65C D107K	14 µM	1 of 3
G56H V99L G100N	380 µM	2 of 3
T28S H35G F106W	no signal	0 of 3
M34K I58P K65H	no signal	0 of 3
D31A K65M V99R	160 nM	3 of 3
T28W I58H	170 nM	3 of 3
A61N V99S G103T	260 µM	1 of 3
Y32L S52F D62L	230 µM	2 of 3
F27E H35R R101Y	56 µM	2 of 3
Y32M D62M G104P	37 µM	2 of 3
T28F S52H S55M	14 µM	2 of 3
S52L S57K V64G	350 µM	2 of 3
G50W S55E K65W	140 µM	1 of 3
T28V F29V V64E	no signal	0 of 3
D31A A33H Y60S	1.8 µM	1 of 3
I58E G103Q Y108N	9.6 nM	3 of 3
D30T D62V R101Q	1.1 µM	3 of 3
G59W A61C	no signal	0 of 3
A33V W53D G56P	210 nM	1 of 3
I58K K65P G100Q	6.5 µM	1 of 3
F29N A61D G102K	10 µM	1 of 3
S52Q N54E S55Q	56 µM	3 of 3
G102L Y105S F106D	no signal	0 of 3
F27Y Y32V G102W	190 µM	2 of 3
F29P W53F Y60I	no signal	0 of 3
G26E M34G S55D	no signal	0 of 3
D31Y G50F	no signal	0 of 3
Y32F S57C G104F	68 µM	2 of 3
A33R I58W V99C	24 nM	3 of 3
N54F S55M G102F	no signal	0 of 3
G56N A61L K65Y	800 nM	2 of 3
W53Q G59R Y105T	11 µM	2 of 3
D30N S63F D107G	52 µM	2 of 3
G59F K65L	no signal	0 of 3
W53R I58N S63I	13 µM	3 of 3
G56V G104F Y108P	120 µM	1 of 3
G50L I51A D107P	no signal	0 of 3
S57G G103M G104L	29 µM	3 of 3
F29Y W53D G100R	no signal	0 of 3
H35K W53E Y60D	1.0 µM	1 of 3
Y32H F106V	190 µM	1 of 3
G26C S52M	580 µM	2 of 3
M34W I51W G102N	no signal	0 of 3
Y32L S52P	no signal	0 of 3
A33C R101Q G102C	no signal	0 of 3
S57T S63E G104P	1.4 µM	3 of 3
G56C G100M R101Q	190 µM	2 of 3

The first 10 variants above that were never detected:

{"changes": "T28M V64A G100F", "apparent Kd": "no signal", "detected": "0 of 3"}
{"changes": "T28P G59E A61Q", "apparent Kd": "no signal", "detected": "0 of 3"}
{"changes": "T28L I51V V99T", "apparent Kd": "no signal", "detected": "0 of 3"}
{"changes": "W53D G102K F106Y", "apparent Kd": "no signal", "detected": "0 of 3"}
{"changes": "G50P W53C S55V", "apparent Kd": "no signal", "detected": "0 of 3"}
{"changes": "F27T G100T", "apparent Kd": "no signal", "detected": "0 of 3"}
{"changes": "I51Y G104N", "apparent Kd": "no signal", "detected": "0 of 3"}
{"changes": "M34C N54R Y105S", "apparent Kd": "no signal", "detected": "0 of 3"}
{"changes": "A33W I58Q K65S", "apparent Kd": "no signal", "detected": "0 of 3"}
{"changes": "S52C Y60I F106Q", "apparent Kd": "no signal", "detected": "0 of 3"}

Nonspecific signal, from three strains lacking the peptide, appeared in 21% of pairings of library AAYL51, centred on 34 µM (5% of these signals below 1.8 µM); values are not corrected for it.